US6444144B1, “Polyethoxylated ascorbic acid derivatives as a novel antioxidant and process for preparing thereof” (LG Chemical Ltd., priority 1998, dated 2002)

Experiment: Transdermal absorption test (Franz cell)
Settings: for Absorption Rate (%) / Total Transdermal Absorption Amount: 50 μl of 5% (w/v) solution in H2O on 1.7 cm^2 mouse skin, after 24 hours
Procedure: More specifically, a dorsal skin of 8-weeks aged female mouse (naked mouse) was cut off and then 5% (w/v) solution of the test sample was applied in an amount of 50 μl to the skin having a size of 1.7 cm^2. Using the apparatus for measuring transdermal absorption test (Franz cell), after 24 hours, the absorbed material was extracted from 7 ml of the receptor solution [50 mM PBS buffer solution (pH=7.4) containing 2% Vol PO20 polyethylene oleyl ether (HLB=16)] and then quantitatively analyzed by HPLC.

3-O-PEG350-Ascorbic Acid
Absorption Rate (%): 12.0% | Total Transdermal Absorption Amount: 0.3 mg | transdermal absorption rate relative to the related art vitamin C (ratio drawn from Table 5): eight-fold

Ascorbic-2-polyphosphate
Absorption Rate (%): 1.5% | Total Transdermal Absorption Amount: 0.037 mg
